# In ChEMBL document CHEMBL5528070, “Design and Synthesis of Dual-Target Inhibitors Targeting Androgen Receptors and Glucocorticoid Receptors to Overcome Antiandrogen Resistance in Castration-Resistant Prostate Cancer” (J Med Chem, 2024):
# Amino acid sequences for entries named in this document (tags omitted). A change or cut given only in a name is not applied to a line headed by its entry.
# UniProt P10275: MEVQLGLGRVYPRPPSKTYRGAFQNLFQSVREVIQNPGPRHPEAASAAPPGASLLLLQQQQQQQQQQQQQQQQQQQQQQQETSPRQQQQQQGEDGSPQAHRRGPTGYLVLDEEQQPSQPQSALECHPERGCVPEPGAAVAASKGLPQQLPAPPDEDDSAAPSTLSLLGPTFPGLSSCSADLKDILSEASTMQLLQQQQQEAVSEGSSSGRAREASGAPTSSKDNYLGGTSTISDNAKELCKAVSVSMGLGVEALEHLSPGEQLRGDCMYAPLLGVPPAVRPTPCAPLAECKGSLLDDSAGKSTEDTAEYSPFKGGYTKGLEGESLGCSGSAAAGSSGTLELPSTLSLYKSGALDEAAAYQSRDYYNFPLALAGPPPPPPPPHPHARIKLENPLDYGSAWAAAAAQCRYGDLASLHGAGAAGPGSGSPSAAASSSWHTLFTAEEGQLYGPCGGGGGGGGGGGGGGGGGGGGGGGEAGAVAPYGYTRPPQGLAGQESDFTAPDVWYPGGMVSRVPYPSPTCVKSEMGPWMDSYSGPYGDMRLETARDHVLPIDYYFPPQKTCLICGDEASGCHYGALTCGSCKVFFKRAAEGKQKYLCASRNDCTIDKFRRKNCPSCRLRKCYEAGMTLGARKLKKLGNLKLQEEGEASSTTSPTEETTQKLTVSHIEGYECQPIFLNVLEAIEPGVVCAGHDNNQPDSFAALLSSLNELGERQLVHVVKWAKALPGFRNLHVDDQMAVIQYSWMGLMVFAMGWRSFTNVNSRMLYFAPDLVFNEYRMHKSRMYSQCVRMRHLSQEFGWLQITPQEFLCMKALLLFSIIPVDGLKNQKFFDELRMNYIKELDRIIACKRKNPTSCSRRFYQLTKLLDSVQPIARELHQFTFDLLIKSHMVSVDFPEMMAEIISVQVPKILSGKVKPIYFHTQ
# Active and inactive are the calls of the source. No cut-off for these calls is given here.
# How the values were obtained:
# CWR22R = assay: Antiproliferative activity against human 22Rv1 cells assessed as reduction in cell viability at upto 128 uM measured after 72 hrs in presence of mifepristone by CCK-8 method; type: functional, cell-based
# Androgen receptor [1] = target: T1, Androgen receptor (Homo sapiens, UniProt P10275); assay: Binding affinity to androgen receptor in human LNCaP cells assessed as increase in thermal stability at 100 uM incubated for 1 hr by Western blot analysis; type: cell-based
# [2] = Toxicity in BALB/c nude mouse assessed as drug tolerance at 10 to 30 mg/kg, IG measured upto 14 days; type: organism-based; conditions: in vivo, po, 336 h, dose 10-30 mg/kg, time < 14 day
# [3] = Toxicity in BALB/c nude mouse assessed as effect on body weight at 10 to 30 mg/kg, IG measured upto 14 days; type: organism-based; conditions: in vivo, po, 336 h, dose 10-30 mg/kg, time < 14 day
# Androgen receptor [4] = target: T1, Androgen receptor; assay: Inhibition of androgen receptor in human LNCaP cells assessed as reduction in TMPRSS2 level measured after 24 hrs by qRT-PCR analysis; type: cell-based; conditions: dose 1-20 µM
# Androgen receptor [5] = target: T1, Androgen receptor; assay: Inhibition of androgen receptor in human LNCaP cells assessed as reduction in PSA level measured after 24 hrs in presence of 17-hydroxy-13,17-dimethyl-1,2,6,7,8,13,14,15,16,17-decahydro-3H-cyclopenta[a]phenanthren-3-one by Western blot analysis; type: cell-based; conditions: dose 1-20 µM
# Androgen receptor [6] = target: T1, Androgen receptor; assay: Inhibition of androgen receptor in human LNCaP cells assessed as reduction in PSA level measured after 24 hrs by qRT-PCR analysis; type: cell-based; conditions: dose 1-20 µM
SMILES,Activity (CWR22R),Activity (Androgen receptor [1]),Activity [2],Activity [3],inhibition (Androgen receptor [4]),inhibition (Androgen receptor [5]),inhibition (Androgen receptor [6])
CC(O)c1cc(C(=O)N[C@@H](C)Cn2ccc(-c3ccc(C#N)c(Cl)c3)n2)n[nH]1 (some centres not stated) [DAROLUTAMIDE],Active,–,–,–,–,–,–
N#Cc1ccc(NC(=O)c2cccc(S(=O)(=O)N3CCCc4ccccc43)c2)cc1,–,Active,Non-Toxic,Non-Toxic,Dose-Dependent Effect,Dose-Dependent Effect,Dose-Dependent Effect
